Reference: BindingDB's records for doi:10.1006/jmbi.2001.4516 (Axys Pharmaceuticals, 2001)
pKi: −log10 of the molar value.

Target: T1, Serine protease 1 (Bos taurus, UniProt P00760)
T1 sequence (P00760 whole entry): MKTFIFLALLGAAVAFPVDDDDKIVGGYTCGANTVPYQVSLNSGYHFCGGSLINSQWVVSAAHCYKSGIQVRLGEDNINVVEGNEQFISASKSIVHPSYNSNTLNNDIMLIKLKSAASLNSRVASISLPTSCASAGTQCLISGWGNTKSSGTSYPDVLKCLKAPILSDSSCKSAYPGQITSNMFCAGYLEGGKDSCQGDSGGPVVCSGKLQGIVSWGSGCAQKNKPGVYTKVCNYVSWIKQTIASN
Assay: Enzyme Assay and Determination of the Inhibition Constants
Settings: 22 °C
Method: Each enzyme was assayed with a set of different concentrations of each inhibitor. […] Ki(apparent) values were calculated from enzyme velocity curves using the software package BatchKi (BioKin Ltd, Madison, WI). These apparent inhibition constants were then converted to Ki values by assuming competitive inhibition and using the formula Ki = Ki(apparent)/(1 + S/Km).

pKi (pH 7.2): 5.72
pKi (pH 8): 7.37
SMILES: N=C(N)c1ccc2nc(-c3ncccc3O)[nH]c2c1 [2-(3-HYDROXY-PYRIDIN-2-YL)-1H-BENZOIMIDAZOLE-5-CARBOXAMIDINE]
